Source: US6060516A, “N^1 -propargylhydrazines, N^2 -propargylhydrazines and their analogs for the treatment of depression, anxiety and neurodegeneration” (CV Technologies, Inc., priority 1998, dated 2000)

Legend:
[1] = tested on: rat brain and liver monoamine oxidase-B; assay: Monoamine oxidase-B inhibiting activity ex vivo; details: 5.75 μmol/kg, 5 hr, i.p. in 10% DMSO (Table 4, MAO-B by title)
Protocol: (§1) Radiolabelled β-phenylethylamine was employed as a substrate for monoamine oxidase-B. The compounds of interest were either injected intraperitoneally in DMSO or administered by gavage in water for various periods. The animals were killed by decapitation and the brains and livers immediately removed and frozen until assayed for monoamine oxidase-B activity. Tissues were homogenized and appropriately diluted in buffer prior to incubation. Incubations proceeded at 37° C. for 10 minutes. Incubation was terminated by the addition of acid and the radiolabelled product (phenylacetic acid) was extracted and quantified by liquid scintillation counting procedures. Incubations were done in triplicate and incubations containing phenelzine were included for comparison. The percent inhibition of monoamine oxidase-B activity compared to controls containing no drug was calculated.
Values are the mean ± the standard error based on (n) determinations.
Oral doses were administered as 75 μmol/kg on day 1, 75 μmol/kg on
day 2 and the animals were killed 5 hours later.

[2] = tested on: MAO-B; assay: MAO-B inhibition ex vivo in DSP-4 treated mice (brain); set-up: species or system mouse
Protocol: as §1, with “Biochem. Pharmacol. 31: 1417-1424. Radiolabelled” for “Radiolabelled”
Neuroprotectant activity was evaluated by examining the prevention of DSP-4 induced noradrenaline depletion in mouse hippocampus as described in Yu, P. H., Davis, B. A., Fang, J. and Boulton, A. A. (1994), Neuroprotective effect of some monoamine oxidase-B inhibitors against DSP-4 induced noradrenaline depletion in the mouse hippocampus, J. Neurochem. 63: 1820-1828. Briefly, mice were injected (i.p.) with either 20% DMSO or potential neuroprotectants (10 mg/kg in 20% DMSO). […]

[3] = tested on: serotonin uptake in rat striatal prisms; assay: Serotonin (5-HT) uptake inhibition in rat striatal prisms in vitro; assay type: biochemical
Protocol: CVT-P040 was evaluated for the ability to inhibit serotonin uptake in rat striatal prisms using the procedure of Martin, I. L., Baker, G. B. and Mitchell, P. R. (1978), The effect of viloxazine hydrochloride on the transport of noradrenaline, dopamine, 5-hydroxytryptamine and γ-aminobutyric acid in rat brain tissue Neuropharmacology 17: 421-423. Briefly, untreated rats were killed by guillotine decapitation, their brains removed, placed on an ice-cooled plate and the striatum was dissected out from the rest of the brain. The striatum was then chopped into 0.1×0.1×2 mm prisms using a Mcllwain tissue chopper and suspended in 5 volumes incubation medium containing 123 mM sodium chloride, 5 mM potassium chloride, 2.7 mM calcium chloride, 1.2 mM magnesium sulphate, 20 mM TRIS-HCl buffer (pH 7.5), 1 mM ascorbic acid, 10 mM glucose and 12.5 μM nialamide. The suspension was stored out of direct light and buried in ice. Aliquots (1 ml) of the tissue suspension were added to flasks containing 4 ml of incubation medium and this mixture was incubated for 15 min at 37° C. in a shaking water bath. Next, 10 µl of the appropriate chemical was added to each tube except the blanks and controls, followed by the addition of 10 μl of ^3 H-5-HT (final concentration 0.1 μM). The mixtures were incubated for 5 min at 37° C., then quickly filtered with a Millipore vacuum filter apparatus and rinsed two times with 5 ml warm (37° C.) incubation medium. Filters were transferred to scintillation vials and 10 ml Ready Safe scintillation cocktail was added to each. Radioactive content per tube was counted using a liquid scintillation spectrophotometer. Percent 5-HT uptake inhibition was calculated by applying the following equation: [formula]

C#CCN(C)[C@H](C)Cc1ccccc1 [(-)-deprenyl, reference compound]
% Inhibition of Monoamine Oxidase-B ([1]; brain): 42.0 ± 9.9%
% Inhibition of Monoamine Oxidase-B ([1]; liver): 63.7 ± 2.0%
MAO-B % Inhibition ([2]; 10 mg/kg i.p. then DSP-4 50 mg/kg, 20% DMSO control experiment): 64.8 ± 2.5%
MAO-B % Inhibition ([2]; 10 mg/kg then DSP-4 50 mg/kg, saline control experiment): 52.3 ± 3.0%

CNCCC(Oc1ccc(C(F)(F)F)cc1)c1ccccc1 (stereo not shown) [Fluoxetine, reference compound]
% Inhibition (serotonin uptake) ([3]; 1 × 10^4 M (so in the source)): 93.2 ± 3.5%
% Inhibition (serotonin uptake) ([3]; 1 × 10^-5 M): 79.9 ± 8.6%
% Inhibition (serotonin uptake) ([3]; 1 × 10^-6 M): 67.7 ± 5.4%
